Columns and labels:
p38 = p38 kinase activity in human neutrophils; type: cell-based; conditions: 5 min; TNF 100 or 1000 U/ml, TNF70-80 10-50 μM
Source text: The blots were stripped and reprobed with anti-JNK1 antibody which detected the p46-kDa JNK1 isotype in each lane. […] The cells were lysed and the lysate assessed by western blot analysis for the level of dual-phosphorylated ERK1/ERK2 (top panel) and ERK2 protein (bottom panel). […] The level of myelin basic protein phosphorylation was quantitated by an Instant Imager. Results presented (a and b) are from one experiment, representative of three-four experiments, each conducted using cells from a different donor. […]
KHS (hereon referred to as “GCKR”) activity was assayed as described previously using myelin basic protein as a substrate (Shi, C. S., Leonardi, A., Kyriakis, J., Siebenlist, U., and Kerhl, J. H. (1999) J. Immunol. 163: 3279-3285). ASK-1 activation was determined in immunoprecipitates of ASK-1 by autophosphorylation (Kyriakis, J. M., and Auruch, J. (2001) Physiol. Rev. 81: 807-869). p38 and ERK activities were determined as described using myelin basic protein as a substrate (Hii, C. S., Huang, Z. H., Bilney, A., Costabile, M., Murray, A. W., Rathjen, D. A., Der, C. J., and Ferrante, A. (1998) J. Biol. Chem. 273: 19277-19282). […]
Neutrophils (1×10^7) were then added and further incubated for 30 min at 37° C. […] The level of myelin basic protein phosphorylation was quantitated by an Instant Imager. […]

NFκB = NFκB pathway activation in human neutrophils (nuclear translocation of NFκB); type: cell-based; conditions: data not shown
Protocol: After cell lysis, nuclear fractions were prepared, nuclear proteins separated by SDS page (12% gel), transferred to nitrocellulose and probed with an anti NFκB p65 antibody (Santa Cruz). Results represent one experimental run representative of results obtained in two other experiments.
Western blot analysis was conducted as described previously (Hii, C. S., Huang, Z. H., Bilney, A., Costabile, M., Murray, A. W., Rathjen, D. A., Der, C. J., and Ferrante, A. (1998) J. Biol. Chem. 273: 19277-19282). Briefly, equal amounts of denatured protein from each lysate were separated by 12% SDS polyacrylamide gel electrophoresis (PAGE). The proteins were electrophoretically transferred to nitrocellulose membranes (Schleicher and Schuell, Keene, N. H., USA)(3 h at 40V). The amounts of dually phosphorylated ERK1 and ERK2, phospho-JNK and NFκB p65 subunit were detected using rabbit anti-active ERK, mouse anti-phospho JNK and rabbit anti-NFκB antibody, respectively. […]
This pathway, akin to the p38 pathway, is dependent on TRAF-2 and RIP (Kyriakis, J. M., and Auruch, J. (2001) Physiol Rev. 81: 807-869). We measured the nuclear translocation of NFκB as an indicator of the activation of this pathway.

GCKR/GLK = GCKR/GLK activity in adherent neutrophils; type: cell-based, human
Protocol: GCKR was immunoprecipitated from cell lysates and activity assayed using myelin basic protein (MBP) as the substrate. […] Results shown are the means+−sem of 3 experiments; (c) Expression of ASK-1 in HEK293T cells and neutrophils as determined by Western blot analysis of cell lysates. […] Activation of ASK-1 was determined by kinase autophosphorylation. A representative digital radiogram from 3 experiments is shown.
KHS (hereon referred to as “GCKR”) activity was assayed as described previously using myelin basic protein as a substrate (Shi, C. S., Leonardi, A., Kyriakis, J., Siebenlist, U., and Kerhl, J. H. (1999) J. Immunol. 163: 3279-3285). ASK-1 activation was determined in immunoprecipitates of ASK-1 by autophosphorylation (Kyriakis, J. M., and Auruch, J. (2001) Physiol. Rev. 81: 807-869). p38 and ERK activities were determined as described using myelin basic protein as a substrate (Hii, C. S., Huang, Z. H., Bilney, A., Costabile, M., Murray, A. W., Rathjen, D. A., Der, C. J., and Ferrante, A. (1998) J. Biol. Chem. 273: 19277-19282). […] Phosphorylated ASK-1, myelin basic protein and GST-jun (1-79) were fractionated on 8, 16 and 12% SDS polyacrylamide gels, respectively, and the bands were detected and radioactivity determined using an Instant Imager (Packard Instruments, Canberra, Australia). […]

For “TNF: Human recombinant TNF produced by Genentech, Inc.”, the “activity of p38 in neutrophils in suspension” value (p38) was “enhanced the activity of p38”, the “degradation of IκB” value (NFκB) was “caused the degradation of IκB” and the “GCKR activity in neutrophils pre-adhered to non-coated surfaces” value (GCKR/GLK; non-coated surfaces, data not shown) was “failed to stimulate the activity of either GCKR or JNK”. The “GCKR/GLK activity in adherent neutrophils” value (GCKR/GLK; plasma-coated dishes, 15 min, TNF 1000 U/ml, TNF70-80 10 μM) was “stimulated the activity of GCKR/GLK”.

Source: patent US8268635B2, “Methods of identifying agents that selectively activate p38 and/or NKkB signaling” (priority 2006, dated 2012)
